From patent publication US8415507B2 (priority 2010, dated 2013)

Experiment: Relative humidity stability at ambient temperature, analyzed by XRPD
Format: physicochemical

NC(=O)N1c2ccccc2C=Cc2ccccc21 [carbamazepine]
Conversion to hydrate at 75% RH (75% RH, up to four weeks): no conversion is observed | Time of partial conversion to hydrate at 94% RH (94% RH): between three days and one week | Results (form by XRPD) (94% RH, 1 week (7 days)): carbamazepine (Form III) + small amount of | Results (form by XRPD) (94% RH, 4 weeks): carbamazepine dihydrate + small amount of | Time of conversion to hydrate at 98% RH (98% RH): less than one day | Results (form by XRPD) (98% RH, 1 week): carbamazepine dihydrate + small amount of | Results (form by XRPD) (98% RH, 1 day): carbamazepine (Form III) + small amount of | Results (form by XRPD) (98% RH, 3 days): carbamazepine (Form III) + small amount of
